These results are taken from article PMC6539809, “Development of Oxygen-Bridged Pyrazole-Based Structures as Cannabinoid Receptor 1 Ligands” (Molecules, 2019).

The chains behind the UniProt entries cited, without tags or fusion partners.
UniProt P47746, whole entry: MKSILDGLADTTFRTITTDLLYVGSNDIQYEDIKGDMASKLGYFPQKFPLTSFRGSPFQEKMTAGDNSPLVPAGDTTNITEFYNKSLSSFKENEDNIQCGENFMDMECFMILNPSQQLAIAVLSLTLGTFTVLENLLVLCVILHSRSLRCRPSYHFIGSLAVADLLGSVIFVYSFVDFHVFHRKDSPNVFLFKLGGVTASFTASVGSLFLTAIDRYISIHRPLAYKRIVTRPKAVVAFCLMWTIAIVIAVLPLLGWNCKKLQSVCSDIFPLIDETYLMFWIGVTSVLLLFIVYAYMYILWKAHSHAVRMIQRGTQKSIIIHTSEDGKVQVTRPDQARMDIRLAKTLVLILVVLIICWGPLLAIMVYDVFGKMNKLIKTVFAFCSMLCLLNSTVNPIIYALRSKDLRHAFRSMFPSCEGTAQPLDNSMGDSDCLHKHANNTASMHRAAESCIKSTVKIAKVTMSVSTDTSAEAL

This assay deals with T1, CB1Rs of mouse vas deferens (Mus musculus, UniProt P47746).
T1 construct: naturally expressed prejunctional neuronal CB1Rs; from tissue; host or cells: isolated vas deferens of male albino CD1 mice
The assay can be described thus: Isolated organ assay: electrically evoked contractions of mouse vas deferens. The conditions noted are these: concentration of 10^−7 M; data not shown.

On to `Cc1c(C(=O)NN2CCCCC2)nn(-c2ccc(Cl)cc2Cl)c1-c1ccc(Cl)cc1` [rimonabant, N-piperidinyl-5-(4-chlorophenyl)-1-(2,4-dichlorophenyl)-4-methyl-1H-pyrazole-3-carboxamide, reference compound], for which the “Increase in the electrically evoked responses” value is “about 30%”.
